Laboratory results published in article PMC11923837, “Proline-Modified (RW)n Peptides: Enhancing the Antimicrobial Efficacy and Selectivity against Multidrug-Resistant Pathogens” (ACS Omega, 2025).

System: Klebsiella pneumoniae ATCC 700603
Conditions: minor letter component 5 mg
Protocol: Antimicrobial activity was evaluated using the Community for Open Antimicrobial Drug Discovery (CO-ADD) screening platform. Minimum inhibitory concentrations (MICs) were determined against the following five bacterial strains: Escherichia coli (E. coli) ATCC 25922, Klebsiella pneumoniae ATCC 700603, Acinetobacter baumannii ATCC 19606, Pseudomonas aeruginosa ATCC 27853, and Staphylococcus aureus ATCC 43300.
Bacteria were cultured in cation-adjusted Mueller–Hinton broth (CAMHB) at 37 °C overnight. Cultures were diluted 40-fold in fresh broth and incubated at 37 °C for 1.5–3 h. […]
Bacterial growth inhibition was determined by measuring the absorbance at 600 nm (OD600) using a Tecan M1000 Pro monochromator plate reader. The percentage of growth inhibition was calculated using negative (media only) and positive (bacteria without inhibitors) controls. Significance was determined by modified Z scores calculated using the median and MAD of the samples on the same plate. […]
The fractional inhibitory concentration (FIC) index was calculated to determine synergy, additivity, or antagonism.
Colistin and VAN were used as positive bacterial inhibitor standards for Gram-negative and Gram-positive bacteria, respectively. The quality control (QC) of the assays was determined by the antimicrobial controls and the Z’ factor (using positive and negative controls). […]

Substance: penicillin [reference compound]
- MIC against Kp (K. pneumoniae ATCC 700603, CAMHB, 5 × 10^5 CFU/mL, 37 °C, 18 h, OD600, mixtures: capital letter component 95 mg): >32 µg/mL
- MIC, Kp (Table 1S) (supplement Table 1S, unit not given (main-text tables: μg/mL), capital letter component 95 mg): > 32
